This experiment concerns the target Estrogen receptor (Homo sapiens) (UniProt P03372). Description: Binding affinity towards estrogen receptor alpha (unknown origin).

Chains of the proteins cited; added tags and fusions are not shown.
UniProt P03372, whole entry: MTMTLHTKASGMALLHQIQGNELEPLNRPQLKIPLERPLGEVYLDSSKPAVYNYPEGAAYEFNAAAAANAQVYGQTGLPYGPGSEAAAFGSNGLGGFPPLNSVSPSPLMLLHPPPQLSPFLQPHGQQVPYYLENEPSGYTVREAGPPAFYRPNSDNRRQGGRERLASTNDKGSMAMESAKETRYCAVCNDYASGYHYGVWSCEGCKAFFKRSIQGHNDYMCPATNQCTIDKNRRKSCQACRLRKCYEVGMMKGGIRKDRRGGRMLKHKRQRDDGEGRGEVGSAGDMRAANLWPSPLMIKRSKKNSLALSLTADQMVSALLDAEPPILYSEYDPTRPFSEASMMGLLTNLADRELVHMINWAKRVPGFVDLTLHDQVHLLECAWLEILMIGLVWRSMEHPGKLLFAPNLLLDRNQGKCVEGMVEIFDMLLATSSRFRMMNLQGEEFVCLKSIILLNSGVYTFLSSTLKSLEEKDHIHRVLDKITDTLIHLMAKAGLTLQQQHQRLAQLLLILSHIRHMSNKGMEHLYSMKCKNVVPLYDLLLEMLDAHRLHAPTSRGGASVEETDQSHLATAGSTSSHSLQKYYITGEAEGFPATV

For `CN1CCN(CCCCCCOc2ccc(C(=C3C4CC5CC(C4)CC3C5)c3ccc(Cl)cc3)cc2)CC1`, the RBA was determined as 0.12%.
With `CCN(CC)CCCCCCOc1ccc(C(=C2C3CC4CC(C3)CC2C4)c2ccc(Cl)cc2)cc1` the figure was 1.17%.

Source of the values: ChEMBL document CHEMBL5052830, “Foxm1 inhibitor compositions and methods of using the same” (2021).
